Data from patent publication US8236987B2, “Selective estrogen receptor modulator compositions and methods for treatment of disease” (The Regents of the University of California, priority 2007, dated 2012).

Protein sequences, listed by entry. Tags and fused reporters are not part of them.
UniProt P03372, whole entry: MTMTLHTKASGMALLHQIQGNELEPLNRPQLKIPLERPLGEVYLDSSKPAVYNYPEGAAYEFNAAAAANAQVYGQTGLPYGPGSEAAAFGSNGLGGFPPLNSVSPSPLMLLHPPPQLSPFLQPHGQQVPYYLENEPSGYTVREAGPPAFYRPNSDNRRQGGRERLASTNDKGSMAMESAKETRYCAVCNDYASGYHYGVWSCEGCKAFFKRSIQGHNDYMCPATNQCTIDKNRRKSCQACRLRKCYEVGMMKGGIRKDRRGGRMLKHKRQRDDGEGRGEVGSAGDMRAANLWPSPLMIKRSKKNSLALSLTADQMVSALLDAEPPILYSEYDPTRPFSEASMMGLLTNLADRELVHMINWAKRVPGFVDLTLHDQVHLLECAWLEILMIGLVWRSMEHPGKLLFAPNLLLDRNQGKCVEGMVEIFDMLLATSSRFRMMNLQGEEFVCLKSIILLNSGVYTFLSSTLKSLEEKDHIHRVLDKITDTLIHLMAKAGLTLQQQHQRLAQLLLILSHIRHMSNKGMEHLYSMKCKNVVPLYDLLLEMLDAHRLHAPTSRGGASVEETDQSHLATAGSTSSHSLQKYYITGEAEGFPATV

Molecular target: full length (ER)α (Homo sapiens, UniProt P03372)
Assay: Estrogen receptor binding assay (spin column, [3H]estradiol competition), (ER)α
Conditions: percentage of the potency of 17β-estradiol (IC50 estradiol / IC50 ligand x 100); 3 nM [3H]estradiol, 15 nM receptor, 4° C. overnight

Relative binding affinity (ER)α: 5%
Structure (SMILES): CC/C(=C(\c1ccccc1)c1ccc(/C=C/C(=O)O)cc1)c1ccccc1 [GW-5638]
